# Yeast mating assay 2: variants of the scFv Ab-91

Values reported by Engelhart et al. 2022, doi:10.1038/s41597-022-01779-4 (FLAb copy).

Antigen: PDVDLGDISGINAS, a 14-residue peptide of the SARS-CoV-2 spike HR2 region.

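Phage display of a naive human antibody library on the peptide gave the parent. In library AAYL51, one, two or three CDR residues were substituted; doubles and triples were drawn at random. In AlphaSeq, yeast of one mating type display the scFv and yeast of the other type display the target. After mating in shaken culture at 30 °C for 16 h, diploids were selected and their barcode pairs sequenced. A regression on co-assayed BCL2-family reference pairs converts the normalised counts of each replicate to an apparent Kd. Mating was done three times.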

Parent scFv Ab-91: VL joined to VH by a (GGGGS)3 linker. Changes lie in the heavy chain CDRs alone.
VL: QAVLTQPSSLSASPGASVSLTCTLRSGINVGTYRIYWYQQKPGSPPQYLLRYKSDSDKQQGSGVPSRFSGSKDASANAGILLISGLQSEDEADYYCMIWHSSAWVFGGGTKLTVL
VH: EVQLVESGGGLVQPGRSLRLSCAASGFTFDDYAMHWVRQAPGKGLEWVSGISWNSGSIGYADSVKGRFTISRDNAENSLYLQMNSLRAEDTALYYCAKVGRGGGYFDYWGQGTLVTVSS

The parent's heavy chain CDRs are GFTFDDYAMH, GISWNSGSIGYADSVK, VGRGGGYFDY; each variant's own CDRs replace them letter for letter.
Affinities are written as log10 Kd with Kd in nM; a lower number is a better binder.
Averages over replicates are reported, and they cover detected replicates only.
Where no diploid with the target was found in any replicate, the entry reads "nd": below detection, most likely a poor binder, though not proof of it.
As a blank, each scFv also met three strains without target: over library AAYL51, 21% of these pairings were detected, typically at 4.54 and seldom below 3.26.

CDR-H1,CDR-H2,CDR-H3,"log10 Kd (nM), mean",detected
GFTFDDYAMT,GISWNSGSIGYWDQVK,VGRGGGYFDY,3.35,1 of 3
GFFFDDYAMH,GISWNSGDSGYADSVK,VGRGGGYFDY,1.21,3 of 3
GFTFDDYAML,GISWNSQSIGYAVSVK,VGRGGGYFDY,nd,0 of 3
GFTFDDYAMH,GISWNSGSIGYADSVK,VHRGGGYFFY,nd,0 of 3
GFTFDDYALH,GISVFSGSIGYADSVK,VGRGGGYFDY,nd,0 of 3
GFTFDMQAHH,GISWNSGSIGYADSVK,VGRGGGYFDY,nd,0 of 3
GFTFDDMAMK,GISWNSGSIMYADSVK,VGRGGGYFDY,nd,0 of 3
GKTFDMYAMH,GISWNSGSIGYADSVK,VGFGGGYFDY,5.07,1 of 3
GFTFDDYAQH,MISWNSGSIGYADSVK,VGRGGGYFDY,nd,0 of 3
GFTFDDYAMH,GISWNSGSIGYADSVP,VGRRTGYFDY,nd,0 of 3
GFTFDDYAMH,MISWNSGSIGYADSVV,VVRGGGYFDY,4.83,3 of 3
GFTFDDYAMH,GISWNSGSIGYADSVK,VGRGGGYFSN,1.26,3 of 3
GVTFDVYAMH,GISWNSGSIGYADKVK,VGRGGGYFDY,1.41,3 of 3
GFTFDDYAMW,YKSWNSGSIGYADSVK,VGRGGGYFDY,nd,0 of 3
GFAFDDYAMH,GISWNSGSFGYADSVK,VGRGGGYFHY,nd,0 of 3
GFTFDDYAMH,GISWNSGSIGYADSQK,VGRGGDYFDY,5.07,3 of 3
GFTFDDYAMH,KVSWNSGSIGYADSVK,QGRGGGYFDY,nd,0 of 3
GFTFDDYAMH,GISWQSGSIGYADSVK,VGYGGGYFYY,4.02,2 of 3
GFTFDDYAMH,GISWNSGLIGYADQVK,VGRFGGYFDY,4.68,1 of 3
GFTFDYYAMH,GISWNRGSIAYADSVK,VGRGGGYFDY,nd,0 of 3
GFTFDDYAMH,GISWNMGSIGYGDSVK,VGRGGRYFDY,5.29,1 of 3
GFTFDDYAMH,GISVNSGSIGYDDSVK,VGRYGGYFDY,1.78,3 of 3
GFTWDDYDMH,GISWNSGSIGYADSVK,VGRGGGIFDY,6.15,1 of 3
GFTFDDYAMH,GISWNSGSILGADSVK,VGRGGGIFDY,nd,0 of 3
GFTFCDDAMH,GISWNSGSIGYADSVK,VGRGGGNFDY,5.28,2 of 3
GHTFDDYAMR,GISWNSNSIGYADSVK,VGRGGGYFDY,5.33,2 of 3
GFTFDDKAMH,GISWNSGSIGYADSVK,DGRGWGYFDY,nd,0 of 3
GFTFDCYAMF,GISWNSGFIGYADSVK,VGRGGGYFDY,nd,0 of 3
GFTFDDYKMH,GISCNSGSIGYAASVK,VGRGGGYFDY,nd,0 of 3
GHTFDDYAMH,GISWNSGSDGYADSVK,VGRGGGYNDY,4.51,2 of 3
GFTFDDYAML,GISWMSGSIGYADSVK,VGRGGMYFDY,3.90,2 of 3
GFTFDDYAMH,GISWNWGSIGYADSVQ,VGRGGGDFDY,4.73,1 of 3
GFTFDDYAMH,GISFNSGSIGYADSVK,VGRGGGPFDW,1.31,3 of 3
QFTFDHYAMH,GISWNSGSIGYADSGK,VGRGGGYFDY,5.22,3 of 3
GFTFDDYAMG,GISWNTGSIGYDDSVK,VGRGGGYFDY,nd,0 of 3
GFTFDDYAMP,GISWPSGSIGYADSVK,VGRGGCYFDY,nd,0 of 3
GFTFDDYAMH,GISWNSGSIGYQTAVK,VGRGGGYFDY,nd,0 of 3
GFTFDDDAMH,GSSWNSGSIGYADSVI,VGRGGGYFDY,nd,0 of 3
EFTFDDYAMH,GISWNSGSILYADSVK,VGRGGEYFDY,3.72,1 of 3

Continued, with the values leading:

"log10 Kd (nM), mean",detected,CDR-H1,CDR-H2,CDR-H3
4.98,1 of 3,GFTEKDYAMH,GISWNSGSIDYADSVK,VGRGGGYFDY
5.57,1 of 3,GCTFDDYAQH,GISWNSGSINYADSVK,VGRGGGYFDY
4.55,1 of 3,DFTFDDYAMH,GISWNSGSDGYADSVK,VMRGGGYFDY
4.51,2 of 3,GFTFDDYATH,GIAWNSDSIGYADSVK,VGRGGGYFDY
nd,0 of 3,GFTFDDYALH,GISLNSGSIGYADSVK,VGYGGGYFDY
6.22,1 of 3,GFTFDDYAMH,GISWNSGSIIYADSVK,VGRGGGYHDW
nd,0 of 3,GFTFDDYIMH,GISWNSGSQGYAMSVK,VGRGGGYFDY
4.94,3 of 3,GFRFDDYAMH,GISWNSGSIGYADSVK,VGRGGWDFDY
nd,0 of 3,GFTFDDYAMH,GIWWNSGSIGYADSVK,VGRGEGYFDY
0.97,3 of 3,GFYFDDYAMH,GISWNSGSIGYADSVK,VGRGGGYPDS
3.66,1 of 3,GFGFDDYAEN,GISWNSGSIGYADSVK,VGRGGGYFDY
4.13,1 of 3,GFTFDDYQMH,GIKWNSGSIGYADSVK,VGRGGGYFDL
3.50,1 of 3,GFTFDDYAML,WISWNSGSIGPADSVK,VGRGGGYFDY
3.92,1 of 3,GFTFDDYAMH,GISWNSGAIGYADSVR,VGRTGGYFDY
nd,0 of 3,GFTKDDYAMH,GISWNSGSIGYADSVK,KGRGGGYFDY
nd,0 of 3,WFTFDDYAMH,GISWNSGSIAYADSVK,VGPGGGYFDY
3.25,1 of 3,GFSFDDYAMH,GISWNPGSFGYADSVK,VGRGGGYFDY
nd,0 of 3,GFTFDDYAMH,GISWNSGIIGYADSMK,VGRGTGYFDY
nd,0 of 3,GFVFDDYAMH,GIVWNSGSIGYADSVK,VGRGGGYFDY
nd,0 of 3,GFEFDDYAMH,GISWNSGSIYYADSVK,VGRGGGYFDY
4.20,2 of 3,GFTFDDYAMH,GISWNSGSLGYADSVK,VGFGGGEFDY
5.66,3 of 3,GFSFDDYAMH,GKSWNSGSIGYADSVK,VPRGGGYFDY
3.78,1 of 3,GFTFVDYAMH,GISWNSGSIGYADSMK,VGRGGGYFMY
4.06,1 of 3,GFTFDDYIAH,GISWNSGSIGYQDSVK,VGRGGGYFDY
1.47,3 of 3,GFTFDDYAMH,GISWNSGSIGYADHVK,VGRGGGYKDY
3.87,2 of 3,GFTFDDYAMH,GISWNFGSIGYADSVK,VGRAEGYFDY
nd,0 of 3,GFTFDDYAMI,GIIWNSGSIGYADSVK,VGRGGGYFDY
3.84,2 of 3,GFTFDDYAMH,GISWNSGSIICADSVK,VGRGGGYFPY
nd,0 of 3,GFTFDDYAMH,GISWNSGSIGYWDRGK,VGRGGGYFDY
6.10,2 of 3,GFTFDDYAMH,GISWNSCSIGYLDSVK,VGRGGGYFDY
5.28,2 of 3,FFTYDDYAMH,GASWNSGSIGYADSVK,VGRGGGYFDY
nd,0 of 3,GFTFDDYAMH,GISWNSGSIGYGDSVK,VGGGGGKFDY
nd,0 of 3,GFTFDDHAMH,GRSWNSGSIGYADCVK,VGRGGGYFDY
3.80,2 of 3,GFTFDDYAYH,GASWNSGSDGYADSVK,VGRGGGYFDY
2.89,3 of 3,GFTFDDYGMH,GISWCSGSIGYGDSVK,VGRGGGYFDY
4.83,3 of 3,GFTFDDYAMH,HISLNSFSIGYADSVK,VGRGGGYFDY
3.56,2 of 3,GFTFDDYAMN,GISWNSGSIGYADSVK,VGRDGGYLDY
3.85,2 of 3,GFTNDDWAMH,GISWNSRSIGYADSVK,VGRGGGYFDY
4.73,2 of 3,GFTFDDYEMH,GISWNSGSIGYADSVK,VHGGGGYFDY

From the list, the first 4 with no signal in any replicate:

CDR-H1	CDR-H2	CDR-H3	log10 Kd (nM), mean	detected
GFTFDDYAML	GISWNSQSIGYAVSVK	VGRGGGYFDY	nd	0 of 3
GFTFDDYAMH	GISWNSGSIGYADSVK	VHRGGGYFFY	nd	0 of 3
GFTFDDYALH	GISVFSGSIGYADSVK	VGRGGGYFDY	nd	0 of 3
GFTFDMQAHH	GISWNSGSIGYADSVK	VGRGGGYFDY	nd	0 of 3